{"sequences": {"note": "By UniProt entry, the sequences of proteins in these tests, tags left out. Where a name states a change or a piece, a line headed by the entry shows the natural chain unless it says otherwise. Residues count along the entry.", "UniProt P32241, 31-457": "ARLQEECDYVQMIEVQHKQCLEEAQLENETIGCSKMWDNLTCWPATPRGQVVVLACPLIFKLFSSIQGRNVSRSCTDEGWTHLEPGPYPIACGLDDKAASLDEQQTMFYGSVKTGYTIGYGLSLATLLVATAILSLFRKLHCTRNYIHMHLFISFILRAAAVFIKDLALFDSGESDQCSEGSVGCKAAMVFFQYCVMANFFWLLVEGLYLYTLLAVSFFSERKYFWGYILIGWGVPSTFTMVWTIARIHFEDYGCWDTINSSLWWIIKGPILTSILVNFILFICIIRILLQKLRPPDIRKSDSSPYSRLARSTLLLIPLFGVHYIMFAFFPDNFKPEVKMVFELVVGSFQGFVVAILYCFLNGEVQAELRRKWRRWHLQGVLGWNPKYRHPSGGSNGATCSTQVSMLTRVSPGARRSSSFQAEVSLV", "UniProt P30989, whole entry": "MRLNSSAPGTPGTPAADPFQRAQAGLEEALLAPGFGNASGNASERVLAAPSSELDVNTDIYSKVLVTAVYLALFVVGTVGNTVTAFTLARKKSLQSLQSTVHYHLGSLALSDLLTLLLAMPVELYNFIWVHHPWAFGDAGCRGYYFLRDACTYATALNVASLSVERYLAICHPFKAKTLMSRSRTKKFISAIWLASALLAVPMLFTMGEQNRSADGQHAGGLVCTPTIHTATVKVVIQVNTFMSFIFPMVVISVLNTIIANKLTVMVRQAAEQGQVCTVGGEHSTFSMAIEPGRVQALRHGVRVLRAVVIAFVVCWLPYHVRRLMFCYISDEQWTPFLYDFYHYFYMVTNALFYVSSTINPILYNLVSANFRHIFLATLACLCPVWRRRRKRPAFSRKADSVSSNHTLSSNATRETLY", "UniProt P08908, whole entry": "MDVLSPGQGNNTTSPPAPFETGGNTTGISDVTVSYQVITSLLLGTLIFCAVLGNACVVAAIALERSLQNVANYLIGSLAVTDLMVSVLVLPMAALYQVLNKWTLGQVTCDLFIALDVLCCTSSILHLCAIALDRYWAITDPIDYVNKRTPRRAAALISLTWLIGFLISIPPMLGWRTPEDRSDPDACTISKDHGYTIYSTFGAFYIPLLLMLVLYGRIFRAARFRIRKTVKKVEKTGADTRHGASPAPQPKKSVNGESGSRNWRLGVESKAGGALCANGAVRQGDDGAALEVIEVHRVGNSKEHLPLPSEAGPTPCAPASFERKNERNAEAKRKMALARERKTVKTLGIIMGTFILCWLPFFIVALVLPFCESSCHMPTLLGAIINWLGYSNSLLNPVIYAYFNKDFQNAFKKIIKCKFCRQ", "UniProt P41146": "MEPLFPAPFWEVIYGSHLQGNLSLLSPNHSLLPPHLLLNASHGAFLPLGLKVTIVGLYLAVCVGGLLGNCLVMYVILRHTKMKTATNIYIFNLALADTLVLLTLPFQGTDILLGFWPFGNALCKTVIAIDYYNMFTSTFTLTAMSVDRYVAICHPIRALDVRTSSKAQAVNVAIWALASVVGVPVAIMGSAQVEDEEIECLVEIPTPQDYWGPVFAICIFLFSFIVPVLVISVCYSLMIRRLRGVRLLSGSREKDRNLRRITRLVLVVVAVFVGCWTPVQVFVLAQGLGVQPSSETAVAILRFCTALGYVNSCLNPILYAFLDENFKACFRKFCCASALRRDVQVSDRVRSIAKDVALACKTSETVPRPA", "UniProt P21452, whole entry": "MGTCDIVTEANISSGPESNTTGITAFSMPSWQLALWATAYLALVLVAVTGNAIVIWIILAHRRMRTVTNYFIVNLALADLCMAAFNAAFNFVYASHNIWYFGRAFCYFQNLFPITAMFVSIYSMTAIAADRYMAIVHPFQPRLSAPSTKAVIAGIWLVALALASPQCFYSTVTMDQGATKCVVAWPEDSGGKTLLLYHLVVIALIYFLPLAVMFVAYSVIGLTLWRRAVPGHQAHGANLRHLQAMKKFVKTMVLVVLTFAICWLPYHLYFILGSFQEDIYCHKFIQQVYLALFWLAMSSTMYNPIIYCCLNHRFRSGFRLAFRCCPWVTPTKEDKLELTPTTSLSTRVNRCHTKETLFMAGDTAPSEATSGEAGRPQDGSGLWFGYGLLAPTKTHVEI"}, "source": "paper PMC8237303", "about": "(Heliyon, 2021)", "key": {"VIP 1 receptor (Human)": {"target": "VIP 1 receptor (Human) (Homo sapiens, UniProt P32241)", "experiment": "[125I]-Vasoactive Intestinal Polypeptide binding assay", "settings": "Human receptor (Non-recombinant)"}, "[1]": {"target": "Neurotensin NT1 receptor (Human) (Homo sapiens, UniProt P30989)", "experiment": "[125I]-Neurotensin binding assay", "settings": "Human recombinant"}, "[2]": {"target": "Serotonin 5HT1A receptor (Human) (Homo sapiens, UniProt P08908)", "experiment": "[3H]-8-Hydreoxy-DPAT binding assay", "settings": "Human recombinant"}, "[3]": {"target": "Opiate ORL1 receptor (Human) (Homo sapiens, UniProt P41146)", "experiment": "[3H]-Nociceptin binding assay", "settings": "Human recombinant"}, "[4]": {"target": "Neurokinin NK2 receptor (Human) (Homo sapiens, UniProt P21452)", "experiment": "[3H]-SR 48968 binding assay", "settings": "Human recombinant"}}, "note": "Structures can show the parent of a compound that is named as a salt."}
{"compound": "Vasoactive Intestinal Peptide human, porcine, rat", "values": [{"measurement": "Inhibition by a positive substance (%)", "setting": "VIP 1 receptor (Human)", "value": 100, "unit": "%"}]}
{"compound": "Neurotensin", "values": [{"measurement": "Inhibition by a positive substance (%)", "setting": "[1]", "value": 99.56, "unit": "%"}]}
{"compound": "NCCc1c[nH]c2ccc(O)cc12", "note": "[Serotonin hydrochloride]", "values": [{"measurement": "Inhibition by a positive substance (%)", "setting": "[2]", "value": 99.67, "unit": "%"}]}
{"compound": "Orphanin FQ", "values": [{"measurement": "Inhibition by a positive substance (%)", "setting": "[3]", "value": 100, "unit": "%"}]}
{"compound": "Neurokinin A", "values": [{"measurement": "Inhibition by a positive substance (%)", "setting": "[4]", "value": 99.61, "unit": "%"}]}
